The results in this text go back to PubChem BioAssay AID488927 (Johns Hopkins Ion Channel Center, 2010).

Each structure is given as a SMILES string. The list shows a part of the results, in another mix than the full data. Some tests of the compounds listed are not included; inactive here does not mean inactive elsewhere. Calls of active or inactive are those of the source.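 The calls were made as follows: active = membrane potential signal moved up or down beyond 5 SD of buffer control wells, in both duplicate plates, actives on both sides; inactive = the rest.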

The experiment deals with Transient receptor potential cation channel subfamily C member 4 (mouse). Description: off-target membrane potential effects via mouse TRPC4 – cell-based, HEK293 TRPC4/mu-opioid, membrane potential dye, selectivity assay for TRPC6 modulator project, confirmation (AID 488927). The note with it: membrane potential fluorescence, at 10 µM.
As for `CN1[C@@H]2CC[C@H]1CC(OC(=O)C(O)(c1ccccc1)c1ccccc1)C2` (some centres not stated), the percent of control was active: 9%.
To `CCN(CC)CC(C)C(C)OC(=O)C(O)(c1ccccc1)c1ccccc1` (configuration not stated) belongs active: 23%.
